This is a selection; strong and weak results do not stand in their true shares. Calls of active or inactive are those of the source. How the calls were made is not given here.
What follows are compounds tested against Eukaryotic translation initiation factor 4H (Homo sapiens) (UniProt Q15056) (assay: human eIF4H binding inhibitors, primary screen, translation initiation inhibitor project, biochemical, uHTS, fluorescence polarization (AID 2012)). Settings: eIF4H fluorescence polarization binding assay; at 35 µM; stronger effect = higher value.
`O=P1(Nc2ccccn2)COc2ccccc2OC1` was tested, and the inhibition was inactive: -7.7%.
